From patent US6828439B1, “Compounds, composition, and methods for photodynamic therapy” (Advanced Research and Technology Institute, Inc., priority 1999, dated 2004)

Key:
[1] = λ≧395 nm; for Yield of photoproduct (Bergman cyclized) on photolysis: 12 hours
[2] = Bergman cyclization studied by differential scanning calorimetry (DSC); details: heating rate 10° C. per minute
[3] = 90° C. for 8 hours, with CHD

Yield of photoproduct (Bergman cyclized) on photolysis [1] [%]	Exothermic peak (Bergman cyclization) by DSC [2] [°C]	Photochemical reactivity ([1]; 100 mM, anaerobic, 120 hours, 0° C., two-fold excess CHD or isopropanol)	Substance	Thermal cyclization in solution [3]
48	135	–	(1,2-bis(pyridine-3-oxy)oct-4-ene-2,6-diyne)copper(II) [Compound 3]	–
–	258	no reactivity	1,2,-bis(pyridine-3-oxy)oct-4-ene-2,6-diyne [Compound 1]	–
50	166	–	(1,2-bis(pyridine-3-oxy)oct-4-ene-2,6-diyne)copper(I) [Compound 2]	complete conversion to the Bergman cyclized product
